Measured values: patent publication US20110300558A1

Tests used:
Streptavidin [1] = molecular target: Streptavidin (UniProt P22629); assay: multiwell plate assay (Example 4) with Eu-labelled streptavidin as label, time-resolved fluorescence; reference is ferritin particles without binding molecule
Streptavidin [2] = molecular target: Streptavidin (UniProt P22629); assay: europium-loaded BCCP-ferritin particles on streptavidin-coated 96 well plates, time-resolved fluorescence of the europium inside ferritin; control reaction with 0.001 mM soluble biotin

With “Ferritin based particles expressing BCCP (Biotin Carboxyl Carrier Peptide) on their surface (BCCP-Human ferritin light chain fusion protein, plasmid pBccpHFl) (from UniProt P0ABD8 70-156; P02792 1-175)” the fold signal as compared to particles produced with pET-26(+)rHuLFt (Streptavidin [1]) was 326 fold and the fold signal as compared to control (excess soluble biotin) (Streptavidin [2]) was 163 fold.
